Columns and labels:
FGFR1 = FGFR1 (Homo sapiens, UniProt P11362); experiment: Binding kinetics assay (surface plasmon resonance) FGFR1; conditions: FGFR1, SPR, 22 °C
Description: (§1) Binding Kinetics Assay wt-BTK, BTK C481S, LCK, FGFR1, FLT3, PDGFR-β, FMS, LYN, MEK1, AUR-B. ITK. VEGFR, EGFR, FGFR3, AXL, c-MET, SRC, YES, ABL, RET and IGFR1 (Surface Plasmon Resonance)
(§2) Streptavidin-coated chips (Cat. No. BR100531), disposables and maintenance kits for Biacore were purchased from Cytiva (Eindhoven, The Netherlands). Biotinylated wt-BTK enzym (Carna Biosciences, cat. no. 08-480-20N), BTK C481S (Carna Biosciences, cat. no. 08-417-20N), LCK (Carna Biosciences, cat. no. 08-470-20N), FGFR1 (Carna Biosciences, cat. no. 08-435-20N), FLT3 (Carna Biosciences, cat. no. 08-454-20N), PDGFR-β (Carna Biosciences, cat. no. 08-458-20N), FMS (Carna Biosciences, cat. no. 08-455-20N), LYN (Carna Biosciences, cat. no. 08-471-20N), MEK1 (Carna Biosciences, cat. no. 07-441-10-20N), AUR-B (Carna Biosciences, cat. no. 05-402-21N), ITK (Carna Biosciences, cat. no. 08-481-20N), VEGFR (Carna Biosciences, cat. no. 08-491-20N), EGFR (Carna Biosciences, cat. no. 08-415-20N), FGFR3 (Carna Biosciences, cat. no. 08-433-20N), AXL (Carna Biosciences, cat. no. 08-407-20N), c-MET (Carna Biosciences, cat. no. 08-451-20N), SRC (Carna Biosciences, cat. no. 08-473-20N), YES (Carna Biosciences, cat. no. 08-475-20N), ABL (Carna Biosciences, cat. no. 08-401-20N), RET (Carna Biosciences, cat. no. 08-459-20N) or IGFR1 (Carna Biosciences, cat. no. 08-441-20N) were immobilized on a streptavidin-coated chip to a level of about 8000 resonance units (RU) using Biacore buffer (50 mM Tris pH 7.5, 0.05% (v/v) Tween-20, 150 mM NaCl and 5 mM MgCl2)+1 mM TCEP. Remaining streptavidin was blocked with biocytin. Immobilization was performed at 4 °C. Subsequent assay steps were conducted at 22 °C. After changing buffer to Biacore buffer with 1% (v/v) dimethylsulfoxide (DMSO), a pre-run was performed for a period of at least 30 min at a flow rate of 30 μl/min to obtain a stable surface. The kinetic constants of the compounds were determined with single cycle kinetics with five consecutive injections with an increasing compound concentration with ranges of 3.16-316 nM. Experiments were performed with an association time of 100 s per concentration and a dissociation time of 1200 s, except for compounds with a long target residence time, such as irreversible inhibitors, where dissociation time was increased. To circumvent problems of mass transport limitation, a flow rate of 30 μl/min was used. A blank run with the same conditions was performed before the compound was injected. The SPR sensorgrams were analyzed with Biacore Evaluation Software by using a method of double referencing. […] Target residence time (τ) for the 1:1 binding model was calculated from the dissociation constant kd with the formula T=1/kd. Target residence for an induced fit model was calculated as described (Tummino and Copeland, 2008).

Amino acid sequences for entries named in this document (tags omitted). Residues count along the entry.
UniProt P11362, 398-822 limits assumed: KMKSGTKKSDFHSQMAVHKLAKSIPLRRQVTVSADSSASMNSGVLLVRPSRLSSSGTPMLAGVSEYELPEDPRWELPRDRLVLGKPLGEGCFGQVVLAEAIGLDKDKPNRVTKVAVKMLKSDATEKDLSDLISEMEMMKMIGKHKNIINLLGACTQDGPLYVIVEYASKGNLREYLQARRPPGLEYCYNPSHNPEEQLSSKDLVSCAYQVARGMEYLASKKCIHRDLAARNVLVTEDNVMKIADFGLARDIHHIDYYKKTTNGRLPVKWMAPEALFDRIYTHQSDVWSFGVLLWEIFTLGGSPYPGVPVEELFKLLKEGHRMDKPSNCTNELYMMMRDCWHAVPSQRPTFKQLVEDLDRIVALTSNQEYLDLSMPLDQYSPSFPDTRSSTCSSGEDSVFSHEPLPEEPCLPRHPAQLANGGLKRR
UniProt P22607, 436-806 limits assumed: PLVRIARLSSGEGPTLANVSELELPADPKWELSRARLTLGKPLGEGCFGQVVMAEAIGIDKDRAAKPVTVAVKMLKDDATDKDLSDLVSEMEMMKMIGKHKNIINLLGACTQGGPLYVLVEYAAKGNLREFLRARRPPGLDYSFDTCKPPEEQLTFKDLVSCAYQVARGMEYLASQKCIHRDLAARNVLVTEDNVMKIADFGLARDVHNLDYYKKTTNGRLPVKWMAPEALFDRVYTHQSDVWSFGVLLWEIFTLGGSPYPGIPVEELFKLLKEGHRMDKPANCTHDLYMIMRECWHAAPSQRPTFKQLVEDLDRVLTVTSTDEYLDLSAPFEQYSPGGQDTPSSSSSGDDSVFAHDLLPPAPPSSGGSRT
UniProt P00519, whole entry: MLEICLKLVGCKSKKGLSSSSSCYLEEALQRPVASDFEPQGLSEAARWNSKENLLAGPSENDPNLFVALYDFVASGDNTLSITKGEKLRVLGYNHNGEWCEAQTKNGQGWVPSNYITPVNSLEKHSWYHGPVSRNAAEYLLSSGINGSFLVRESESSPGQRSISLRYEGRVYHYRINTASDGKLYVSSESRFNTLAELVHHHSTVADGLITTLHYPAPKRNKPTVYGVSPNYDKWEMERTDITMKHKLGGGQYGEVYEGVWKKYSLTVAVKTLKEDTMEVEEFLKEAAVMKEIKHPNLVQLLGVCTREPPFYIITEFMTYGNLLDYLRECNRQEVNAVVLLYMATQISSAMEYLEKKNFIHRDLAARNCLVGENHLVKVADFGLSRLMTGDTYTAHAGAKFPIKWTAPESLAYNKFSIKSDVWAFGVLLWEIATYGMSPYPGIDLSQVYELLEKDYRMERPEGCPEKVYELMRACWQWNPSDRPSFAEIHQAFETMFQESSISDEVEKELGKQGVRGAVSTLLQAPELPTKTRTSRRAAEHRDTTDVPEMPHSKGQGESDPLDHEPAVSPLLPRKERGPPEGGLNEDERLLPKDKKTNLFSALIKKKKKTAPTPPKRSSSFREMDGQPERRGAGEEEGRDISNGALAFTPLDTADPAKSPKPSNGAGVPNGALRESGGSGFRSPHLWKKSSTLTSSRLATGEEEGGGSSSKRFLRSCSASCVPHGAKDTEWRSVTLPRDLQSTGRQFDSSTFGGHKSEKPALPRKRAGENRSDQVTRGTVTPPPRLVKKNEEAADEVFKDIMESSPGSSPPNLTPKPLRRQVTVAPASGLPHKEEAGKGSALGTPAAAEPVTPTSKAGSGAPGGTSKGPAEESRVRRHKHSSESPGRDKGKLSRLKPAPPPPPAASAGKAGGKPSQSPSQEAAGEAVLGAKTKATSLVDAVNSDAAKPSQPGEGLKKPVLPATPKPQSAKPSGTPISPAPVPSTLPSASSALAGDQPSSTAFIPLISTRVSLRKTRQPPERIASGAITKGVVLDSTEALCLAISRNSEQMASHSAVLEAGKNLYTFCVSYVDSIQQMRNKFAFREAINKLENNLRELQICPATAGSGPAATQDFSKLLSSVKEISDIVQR
UniProt P06239, whole entry: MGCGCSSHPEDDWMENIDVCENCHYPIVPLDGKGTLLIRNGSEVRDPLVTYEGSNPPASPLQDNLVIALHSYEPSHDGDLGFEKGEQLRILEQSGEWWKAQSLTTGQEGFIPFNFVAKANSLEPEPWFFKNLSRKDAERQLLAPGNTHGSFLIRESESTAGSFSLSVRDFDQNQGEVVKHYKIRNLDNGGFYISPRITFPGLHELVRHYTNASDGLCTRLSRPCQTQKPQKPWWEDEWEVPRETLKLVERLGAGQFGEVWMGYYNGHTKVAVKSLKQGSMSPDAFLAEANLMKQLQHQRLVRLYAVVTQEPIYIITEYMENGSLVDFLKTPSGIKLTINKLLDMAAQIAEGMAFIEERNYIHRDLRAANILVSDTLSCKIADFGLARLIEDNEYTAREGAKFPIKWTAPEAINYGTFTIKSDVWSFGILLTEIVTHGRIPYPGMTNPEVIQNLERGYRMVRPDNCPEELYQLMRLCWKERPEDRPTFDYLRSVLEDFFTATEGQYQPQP
UniProt P30530, 26-894 limits assumed: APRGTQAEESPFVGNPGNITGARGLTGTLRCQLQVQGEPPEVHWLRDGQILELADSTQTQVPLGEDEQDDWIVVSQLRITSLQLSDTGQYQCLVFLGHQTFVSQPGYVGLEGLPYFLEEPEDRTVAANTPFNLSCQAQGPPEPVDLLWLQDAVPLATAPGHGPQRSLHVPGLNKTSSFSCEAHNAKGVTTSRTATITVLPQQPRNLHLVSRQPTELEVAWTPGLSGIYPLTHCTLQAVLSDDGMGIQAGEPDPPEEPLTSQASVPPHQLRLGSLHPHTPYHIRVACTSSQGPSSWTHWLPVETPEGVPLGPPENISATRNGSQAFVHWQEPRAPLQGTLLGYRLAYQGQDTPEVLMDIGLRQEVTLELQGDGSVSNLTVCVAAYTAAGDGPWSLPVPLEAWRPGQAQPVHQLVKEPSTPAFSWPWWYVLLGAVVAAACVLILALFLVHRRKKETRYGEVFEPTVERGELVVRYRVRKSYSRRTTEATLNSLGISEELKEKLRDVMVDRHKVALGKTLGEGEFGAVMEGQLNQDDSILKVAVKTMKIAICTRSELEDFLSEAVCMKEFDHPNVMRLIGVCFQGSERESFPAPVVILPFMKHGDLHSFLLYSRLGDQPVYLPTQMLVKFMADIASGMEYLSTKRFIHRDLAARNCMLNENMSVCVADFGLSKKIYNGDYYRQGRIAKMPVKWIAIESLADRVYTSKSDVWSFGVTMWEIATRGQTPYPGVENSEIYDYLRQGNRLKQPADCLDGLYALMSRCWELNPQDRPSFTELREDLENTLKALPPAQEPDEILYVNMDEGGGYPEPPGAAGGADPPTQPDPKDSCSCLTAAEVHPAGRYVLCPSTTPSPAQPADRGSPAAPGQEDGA
UniProt P12931, whole entry: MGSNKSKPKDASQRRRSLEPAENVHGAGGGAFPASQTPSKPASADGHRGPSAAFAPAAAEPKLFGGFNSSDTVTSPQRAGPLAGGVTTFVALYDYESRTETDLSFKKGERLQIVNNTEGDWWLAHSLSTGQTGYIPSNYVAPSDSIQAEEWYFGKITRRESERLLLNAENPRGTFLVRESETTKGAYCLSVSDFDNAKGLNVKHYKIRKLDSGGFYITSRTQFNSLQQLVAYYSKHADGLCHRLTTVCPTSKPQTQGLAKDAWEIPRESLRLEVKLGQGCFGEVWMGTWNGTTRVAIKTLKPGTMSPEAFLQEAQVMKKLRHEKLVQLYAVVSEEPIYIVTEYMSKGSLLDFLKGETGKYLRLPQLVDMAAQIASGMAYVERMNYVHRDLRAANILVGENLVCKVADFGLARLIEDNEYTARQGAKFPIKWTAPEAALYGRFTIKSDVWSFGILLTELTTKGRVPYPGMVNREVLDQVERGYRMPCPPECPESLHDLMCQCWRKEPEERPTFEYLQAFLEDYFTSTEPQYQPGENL
UniProt P00533, 25-1210 limits assumed: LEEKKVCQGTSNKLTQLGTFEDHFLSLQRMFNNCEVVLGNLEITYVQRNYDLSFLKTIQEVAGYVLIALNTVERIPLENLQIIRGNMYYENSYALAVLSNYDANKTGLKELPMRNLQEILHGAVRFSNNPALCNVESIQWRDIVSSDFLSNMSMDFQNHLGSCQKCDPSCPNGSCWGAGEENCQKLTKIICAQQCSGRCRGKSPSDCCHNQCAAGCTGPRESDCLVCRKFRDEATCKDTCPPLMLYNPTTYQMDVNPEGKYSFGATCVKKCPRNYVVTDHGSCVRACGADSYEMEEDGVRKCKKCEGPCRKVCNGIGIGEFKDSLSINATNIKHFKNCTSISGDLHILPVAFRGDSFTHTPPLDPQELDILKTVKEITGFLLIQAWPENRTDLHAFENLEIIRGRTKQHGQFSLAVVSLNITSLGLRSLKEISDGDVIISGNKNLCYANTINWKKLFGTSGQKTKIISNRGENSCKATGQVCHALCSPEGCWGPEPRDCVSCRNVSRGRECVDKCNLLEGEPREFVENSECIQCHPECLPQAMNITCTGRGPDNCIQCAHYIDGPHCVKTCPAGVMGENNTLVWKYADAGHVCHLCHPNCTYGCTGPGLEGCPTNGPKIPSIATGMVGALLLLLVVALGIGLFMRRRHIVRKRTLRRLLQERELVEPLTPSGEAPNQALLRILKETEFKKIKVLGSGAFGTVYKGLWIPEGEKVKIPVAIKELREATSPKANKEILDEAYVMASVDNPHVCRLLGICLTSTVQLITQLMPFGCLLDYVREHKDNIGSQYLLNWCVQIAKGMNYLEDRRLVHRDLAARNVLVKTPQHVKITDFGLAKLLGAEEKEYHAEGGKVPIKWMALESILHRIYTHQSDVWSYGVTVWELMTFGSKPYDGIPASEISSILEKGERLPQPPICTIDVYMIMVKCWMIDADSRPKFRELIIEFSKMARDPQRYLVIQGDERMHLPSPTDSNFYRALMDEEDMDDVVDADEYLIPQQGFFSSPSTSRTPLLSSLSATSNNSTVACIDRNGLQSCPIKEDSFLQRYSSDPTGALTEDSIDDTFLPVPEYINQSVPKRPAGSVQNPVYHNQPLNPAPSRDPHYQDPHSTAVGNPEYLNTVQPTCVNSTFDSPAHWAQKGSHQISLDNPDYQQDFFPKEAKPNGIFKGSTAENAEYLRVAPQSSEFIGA
UniProt P07947, whole entry: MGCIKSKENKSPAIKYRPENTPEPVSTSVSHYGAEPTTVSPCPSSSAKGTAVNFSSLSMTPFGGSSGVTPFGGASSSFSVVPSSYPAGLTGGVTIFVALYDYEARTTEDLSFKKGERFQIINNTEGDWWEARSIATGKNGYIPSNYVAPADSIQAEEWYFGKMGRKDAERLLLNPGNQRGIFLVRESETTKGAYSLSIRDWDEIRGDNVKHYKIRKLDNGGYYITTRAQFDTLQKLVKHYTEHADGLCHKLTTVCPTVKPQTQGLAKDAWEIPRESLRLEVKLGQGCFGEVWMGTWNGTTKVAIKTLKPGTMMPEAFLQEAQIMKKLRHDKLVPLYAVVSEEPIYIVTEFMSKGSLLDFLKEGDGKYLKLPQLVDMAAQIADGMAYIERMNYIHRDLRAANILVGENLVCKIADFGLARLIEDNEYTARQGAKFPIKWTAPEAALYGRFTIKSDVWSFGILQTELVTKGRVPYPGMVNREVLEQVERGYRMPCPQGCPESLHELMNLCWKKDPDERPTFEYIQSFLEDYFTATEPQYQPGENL
UniProt P42680, whole entry: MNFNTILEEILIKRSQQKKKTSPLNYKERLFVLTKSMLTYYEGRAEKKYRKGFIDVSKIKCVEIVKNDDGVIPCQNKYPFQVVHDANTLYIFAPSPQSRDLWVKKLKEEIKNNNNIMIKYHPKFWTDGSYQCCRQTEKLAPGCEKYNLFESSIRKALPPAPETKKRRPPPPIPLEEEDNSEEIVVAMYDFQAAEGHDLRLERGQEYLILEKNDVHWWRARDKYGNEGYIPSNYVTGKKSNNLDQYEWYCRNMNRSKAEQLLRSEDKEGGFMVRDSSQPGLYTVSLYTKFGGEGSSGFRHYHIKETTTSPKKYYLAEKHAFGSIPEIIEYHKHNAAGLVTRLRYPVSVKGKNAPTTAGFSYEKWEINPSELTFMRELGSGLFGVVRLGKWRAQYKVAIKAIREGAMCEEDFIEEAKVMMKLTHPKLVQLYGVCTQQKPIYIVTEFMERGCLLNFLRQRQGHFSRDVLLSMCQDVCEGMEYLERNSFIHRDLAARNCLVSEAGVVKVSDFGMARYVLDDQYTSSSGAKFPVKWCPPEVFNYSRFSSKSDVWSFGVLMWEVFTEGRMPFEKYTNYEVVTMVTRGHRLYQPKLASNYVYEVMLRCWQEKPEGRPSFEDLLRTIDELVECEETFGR

FGFR3 = FGFR3 (Homo sapiens, UniProt P22607); experiment: Binding kinetics assay (surface plasmon resonance) FGFR3; conditions: FGFR3, SPR, 22 °C
Description: as §1
(§3) Streptavidin-coated chips (Cat. No. BR100531), disposables and maintenance kits for Biacore were purchased from Cytiva (Eindhoven, The Netherlands). Biotinylated wt-BTK enzym (Carna Biosciences, cat. no. 08-480-20N), BTK C481S (Carna Biosciences, cat. no. 08-417-20N), LCK (Carna Biosciences, cat. no. 08-470-20N), FGFR1 (Carna Biosciences, cat. no. 08-435-20N), FLT3 (Carna Biosciences, cat. no. 08-454-20N), PDGFR-β (Carna Biosciences, cat. no. 08-458-20N), FMS (Carna Biosciences, cat. no. 08-455-20N), LYN (Carna Biosciences, cat. no. 08-471-20N), MEK1 (Carna Biosciences, cat. no. 07-441-10-20N), AUR-B (Carna Biosciences, cat. no. 05-402-21N), ITK (Carna Biosciences, cat. no. 08-481-20N), VEGFR (Carna Biosciences, cat. no. 08-491-20N), EGFR (Carna Biosciences, cat. no. 08-415-20N), FGFR3 (Carna Biosciences, cat. no. 08-433-20N), AXL (Carna Biosciences, cat. no. 08-407-20N), c-MET (Carna Biosciences, cat. no. 08-451-20N), SRC (Carna Biosciences, cat. no. 08-473-20N), YES (Carna Biosciences, cat. no. 08-475-20N), ABL (Carna Biosciences, cat. no. 08-401-20N), RET (Carna Biosciences, cat. no. 08-459-20N) or IGFR1 (Carna Biosciences, cat. no. 08-441-20N) were immobilized on a streptavidin-coated chip to a level of about 8000 resonance units (RU) using Biacore buffer (50 mM Tris pH 7.5, 0.05% (v/v) Tween-20, 150 mM NaCl and 5 mM MgCl2)+1 mM TCEP. Remaining streptavidin was blocked with biocytin. Immobilization was performed at 4 °C. Subsequent assay steps were conducted at 22 °C. After changing buffer to Biacore buffer with 1% (v/v) dimethylsulfoxide (DMSO), a pre-run was performed for a period of at least 30 min at a flow rate of 30 μl/min to obtain a stable surface. The kinetic constants of the compounds were determined with single cycle kinetics with five consecutive injections with an increasing compound concentration with ranges of 3.16-316 nM. Experiments were performed with an association time of 100 s per concentration and a dissociation time of 1200 s, except for compounds with a long target residence time, such as irreversible inhibitors, where dissociation time was increased. To circumvent problems of mass transport limitation, a flow rate of 30 μl/min was used. A blank run with the same conditions was performed before the compound was injected. The SPR sensorgrams were analyzed with Biacore Evaluation Software by using a method of double referencing. First the reference channel was subtracted from the channel containing immobilized protein. Subsequently, the reference curve obtained with buffer injections was subtracted. The resulting curve was fitted with a 1:1 binding model. Compounds that bound according to an induced fit model were fitted with a two-state reaction model. The kinetic constants (ka, […], KD) of duplicates were geometrically averaged. Target residence time (τ) for the 1:1 binding model was calculated from the dissociation constant kd with the formula T=1/kd. Target residence for an induced fit model was calculated as described (Tummino and Copeland, 2008).

ABL = ABL (Homo sapiens, UniProt P00519); experiment: Binding kinetics assay (surface plasmon resonance) ABL; conditions: SPR, 22 °C
Description: as §1, §2

LCK = LCK (Homo sapiens, UniProt P06239); experiment: Binding kinetics assay (surface plasmon resonance) LCK; conditions: SPR, 22 °C
Description: as §1, §3

AXL = AXL (Homo sapiens, UniProt P30530); experiment: Binding kinetics assay (surface plasmon resonance) AXL; conditions: SPR, 22 °C
Description: as §1, §3

SRC = SRC (Homo sapiens, UniProt P12931); experiment: Binding kinetics assay (surface plasmon resonance) SRC; conditions: SPR, 22 °C
Description: as §1, §3

EGFR = EGFR (Homo sapiens, UniProt P00533); experiment: Binding kinetics assay (surface plasmon resonance) EGFR; conditions: SPR, 22 °C
Description: as §1, §3

YES = YES (Homo sapiens, UniProt P07947); experiment: Binding kinetics assay (surface plasmon resonance) YES; conditions: SPR, 22 °C
Description: as §1, §3

Tec = Tec (Homo sapiens, UniProt P42680); experiment: Binding kinetics assay TEC (surface plasmon resonance); conditions: SPR, His-tagged TEC on Ni-NTA chip
Procedure: Binding Kinetics Assay TEC (Surface Plasmon Resonance)
An aliquot of N-terminal His-tagged TEC (Eurofins DiscoverX, cat. no. 14-801) was thawed, diluted to 4.8 μg/mL in pre-cooled Biacore buffer (10 mM Tris pH 7.5, 0.05% Tween, 150 mM NaCl and 5 mM MgCl2) and immobilized on a Ni-NTA chip with His-tag capturing, followed by amine-coupling. First, the surface of the chip was first washed for 420 seconds with 0.35 M EDTA, subsequently loaded with 1 mM NiCl for 420 seconds, followed by activation for 1000 seconds with a 1:1 dilution of 0.2 M 1-ethyl-3-(3-dimethylaminopropyl) carbodiimide hydrochloride (EDC) and 50 mM N-hydroxysuccinimide (NHS). His-tagged protein was immobilized on the surface until an immobilization level of 4000 RU was obtained. Remaining active groups on the sensor surface were blocked by injection of 1 M ethanolamine for 420 seconds. The immobilization procedure was performed at 22 °C. Channel 1 was immobilized as described above without injection of His-tagged protein and used as a reference channel to correct for buffer effects, other channels were immobilized as described above. After immobilization, buffer was changed to Biacore buffer containing 1% DMSO. A pre-run was performed for a period of ≥30 min at a flow rate of 30 μL/min until a stable surface was obtained. The kinetic constants of the compounds were determined with single cycle kinetics with five consecutive injections with an increasing compound concentration with ranges of 3.16-316 nM. Experiments were performed with an association time of 100 s per concentration and a dissociation time of 1200 s, except for compounds with a long target residence time, such as irreversible inhibitors, where dissociation time was increased. To circumvent problems of mass transport limitation, a flow rate of 30 μl/min was used. A blank run with the same conditions was performed before the compound was injected. The SPR sensorgrams were analyzed with Biacore Evaluation Software by using a method of double referencing. First the reference channel was subtracted from the channel containing immobilized protein. Subsequently, the reference curve obtained with buffer injections was subtracted. The resulting curve was fitted with a 1:1 binding model. Compounds that bound according to an induced fit model were fitted with a two-state reaction model. The kinetic constants (ka, […], KD) of duplicates were geometrically averaged. Target residence time (τ) for the 1:1 binding model was calculated from the dissociation constant kd with the formula T=1/kd. Target residence for an induced fit model was calculated as described (Tummino and Copeland, 2008).

[1] = test system: REC-1 mantle cell lymphoma cells; experiment: Cell proliferation assay REC-1; conditions: read-out: IC50 value, REC-1 cells, 120 hours
Procedure: REC-1 mantle cell lymphoma cells were purchased from Deutsche Sammlung von Mikroorganismen und Zellkulturen (cat. no. ACC 584, DSMZ) and cultured in RPMI-1640 cell culture medium (cat. no. 61870036, Life Technologies), supplemented with 18% (v/v) fetal bovine calf serum and 1% penicillin/streptavidin. 1200 cells per well (in 45 μl) were seeded in a white 384-well culture plate (cat. no. 781080, Greiner Bio-One) and allowed to rest for at least 5 hours at 37 °C, 95% humidity, and 5% CO2. 5 μl compound solution was added to the cells and incubation was continued for 120 hours (5 days), followed by addition of 24 μl ATPlite 1Step™ (PerkinElmer, Groningen, The Netherlands) solution was added to each well. Luminescence was recorded on an Envision multimode reader. The cell signal at the start of incubation was recorded separately in order to distinguish between cell population growth and cell death. In addition, maximum growth was determined by incubation of a duplicate without compound in the presence of 0.3% DMSO. Percentage growth was used as the main y-axis signal. IC50s were fitted by non-linear regression using IDBS XLfit™5 using a 4-parameter logistic curve, yielding a maximum signal, minimum signal, hill-parameter and IC50.

Row | Compound | Kd (FGFR1) | Target residence time Tau (τ) (FGFR1) | Kd (FGFR3) | Target residence time Tau (τ) (FGFR3) | Kd (ABL) | Target residence time Tau (τ) (ABL) | Kd (LCK) | Target residence time Tau (τ) (LCK) | Kd (AXL) | Target residence time Tau (τ) (AXL) | Kd (SRC) | Target residence time Tau (τ) (SRC) | Kd (EGFR) | Target residence time Tau (τ) (EGFR) | Kd (YES) | Target residence time Tau (τ) (YES) | Kd (Tec) | Target residence time Tau (τ) (Tec) | IC50 [1]
1 | COc1cc(C#Cc2nn3c4c(cnc(N)c24)/C=C/CCCCCC(=O)N[C@@H]2CCC[C@@H]3C2)cc(OC)c1 | 5 to 50 nM | A (τ between 0.2 h and 1 h) | 5 to 50 nM | A (τ between 0.2 h and 1 h) |  |  |  |  |  |  |  |  |  |  |  |  |  |  | 
2 | COc1cc(-c2nn3c4c(cnc(N)c24)/C=C/CCOCCC(=O)N[C@H](C)CC3)ccc1NC(=O)OC(C)(C)C |  |  |  |  | < 5 nM | B (τ between 1 and 3 h) | < 5 nM | A (τ between 0.2 h and 1 h) | 5 to 50 nM | A (τ between 0.2 h and 1 h) | 5 to 50 nM | A (τ between 0.2 h and 1 h) | 5 to 50 nM | A (τ between 0.2 h and 1 h) |  |  |  |  | 
3 | COc1cc(-c2nn3c4c(cnc(N)c24)/C=C/CCCCCC(=O)N[C@H](C)CC3)ccc1NC(=O)OC(C)(C)C |  |  |  |  | < 5 nM | B (τ between 1 and 3 h) | < 5 nM | B (τ between 1 and 3 h) | < 5 nM | B (τ between 1 and 3 h) | < 5 nM | B (τ between 1 and 3 h) | 5 to 50 nM | A (τ between 0.2 h and 1 h) | 50 to 500 nM | A (τ between 0.2 h and 1 h) |  |  | 
4 | C[C@@H]1CC(=O)N[C@@H]2CCC[C@H](C2)n2nc(-c3ccc(C(=O)Nc4cc(C(F)(F)F)ccn4)cc3)c3c(N)ncc(c32)/C=C/CCN1C |  |  |  |  |  |  |  |  |  |  |  |  | < 5 nM | A (τ between 0.2 h and 1 h) |  |  | < 5 nM | A (τ between 0.2 h and 1 h) | < 50 nM
